The results in this text go back to patent US20220220224A1 (Hoffmann-La Roche, published 2022).

The target in experiment [1] is T1, recombinant biotinylated monomeric Fc fusion of human Folate Receptor 1 (huFolR1 ECD-AcTev-Fcknob-Avi tag … (human, UniProt P0DOX5 223-449 = IgG part, biotin on the C-terminal Avi tag)).
T1 construct: also called huFolR1-Fc; human FolR1-Fc
As to the kind of experiment: SPR Biacore, avidity (bivalent, apparent KD), antigen-Fc on SA chip. Here is the method:
(§1) Binding of FolR1 binders as IgG or in the T-cell bispecific format to different recombinant folate receptors (human FolR1, 2 and 3, murine FolR1 and cynomolgus FolR1; all as Fc fusions) was assessed by surface plasmon resonance (SPR). All SPR experiments were performed on a Biacore T200 at 25° C. with HBS-EP as running buffer (0.01 M HEPES pH 7.4, 0.15 M NaCl, 3 mM EDTA, 0.005% Surfactant P20, Biacore, Freiburg/Germany).
Recombinant biotinylated monomeric Fc fusions of human, cynomolgus and murine Folate Receptor 1 (FolR1-Fc) were directly coupled on a SA chip using the standard coupling instruction (Biacore, Freiburg/Germany). The immobilization level was about 300-400 RU. The anti-FolR1 IgGs or T cell bispecifics were passed at a concentration range from 2.1 to 500 nM with a flow of 30 μL/minutes through the flow cells over 180 seconds. The dissociation was monitored for 600 seconds. Bulk refractive index differences were corrected for by subtracting the response obtained on reference flow cell immobilized with recombinant biotinylated IL2 receptor Fc fusion. […] The binding curves resulting from the bivalent binding of the IgGs or T cell bispecifics were approximated to a 1:1 Langmuir binding and fitted with that model (which is not correct, but gives an idea of the avidity). […]
(SPR reads the build-up and loss of mass on a sensor chip optically.)

Experiment [2] deals with T1, recombinant biotinylated monomeric Fc …. In words: SPR Biacore, affinity (monovalent), antibody captured via anti-Fab. The method, then:
as §1
For affinity measurement, direct coupling of around 6000-7000 resonance units (RU) of the anti-human Fab specific antibody (Fab capture kit, GE Healthcare) was performed on a CM5 chip at pH 5.0 using the standard amine coupling kit (GE Healthcare). Anti-FolR1 IgGs or T cell bispecifics were captured at 20 nM with a flow rate of 10 μl/min for 20 or 40 sec, the reference flow cell was left without capture. Dilution series (6.17 to 500 nM or 12.35 to 3000 nM) of human or cyno Folate Receptor 1 Fc fusion were passed on all flow cells at 30 μl/min for 120 or 240 sec to record the association phase. The dissociation phase was monitored for 240 s and triggered by switching from the sample solution to HBS-EP. The chip surface was regenerated after every cycle using a double injection of 60 sec 10 mM Glycine-HCl pH 2.1 or pH 1.5. Bulk refractive index differences were corrected for by subtracting the response obtained on the reference flow cell 1. […]

Experiment [3] concerns the target T2, recombinant biotinylated monomeric Fc fusion of murine Folate Receptor 1 (mu FolR1 ECD-AcTev-Fcknob-Avitag … (murine, UniProt P0DOX5 223-449 = IgG part, biotin on the C-terminal Avi tag)).
T2 construct: also called muFolR1-Fc; murine FolR1
In words: SPR ProteOn, Fab analyte on immobilized antigen-Fc. The method, then:
Immobilization of antigens (ligand): Recombinant antigens were diluted with PBST (10 mM phosphate, 150 mM sodium chloride pH 7.4, 0.005% Tween 20) to 10 μg/ml, then injected at 30 μl/minute in vertical orientation. Injection of analytes: For ‘one-shot kinetics’ measurements, injection direction was changed to horizontal orientation, two-fold dilution series of purified Fab (varying concentration ranges) were injected simultaneously along separate channels 1-5, with association times of 150 or 200 s, and dissociation times of 200 or 600 s, respectively. Buffer (PBST) was injected along the sixth channel to provide an “in-line” blank for referencing. Association rate constants (kₒₙ) and dissociation rate constants (koff) were calculated using a simple one-to-one Langmuir binding model in ProteOn Manager v3.1 software by simultaneously fitting the association and dissociation sensorgrams. The equilibrium dissociation constant (KD) was calculated as the ratio koff/kₒₙ.

Experiment [4] addresses T2, recombinant biotinylated monomeric Fc …. As to the kind of experiment: SPR ProteOn, Fab analyte on immobilized antigen-Fc. Here is the method: (§2) Immobilization of antigens (ligand): Recombinant antigens were diluted with PBST (10 mM phosphate, 150 mM sodium chloride pH 7.4, 0.005% Tween 20) to 10 μg/ml, then injected at 30 μl/minute in vertical orientation. Injection of analytes: For ‘one-shot kinetics’ measurements, injection direction was changed to horizontal orientation, two-fold dilution series of purified Fab (varying concentration ranges) were injected simultaneously along separate channels 1-5, with association times of 200 s, and dissociation times of 600 s. Buffer (PBST) was injected along the sixth channel to provide an “in-line” blank for referencing. Association rate constants (kₒₙ) and dissociation rate constants (koff) were calculated using a simple one-to-one Langmuir binding model in ProteOn Manager v3.1 software by simultaneously fitting the association and dissociation sensorgrams. The equilibrium dissociation constant (KD) was calculated as the ratio koff/kₒₙ.
This is another data set of the same source.

The target in experiment [5] is T1, recombinant biotinylated monomeric Fc …. In words: SPR ProteOn, Fab analyte on immobilized antigen-Fc. Here is the method:
as §2

Where two headings read alike, the source gives them in different places.

B1: Farletuzumab (antibody, V domains shown)
VH: EVQLVESGGGVVQPGRSLRLSCSASGFTFSGYGLSWVRQAPGKGLEWVAMISSGGSYTYYADSVKGRFAISRDNAKNTLFLQMDSLRPEDTGVYFCARHGDDPAWFAYWGQGTPVTVSS
VL: DIQLTQSPSSLSASVGDRVTITCSVSSSISSNNLHWYQQKPGKAPKPWIYGTSNLASGVPSRFSGSGSGTDYTFTISSLQPEDIATYYCQQWSSYPYMYTFGQGTKVEIKR
On to B1, for which the Kd in experiment [1] stood at 0.73 nM; in experiment [2], 55.3 nM.

B2: 14E4 Fab (Fab, V domains shown)
VH: not shown
VL: EIVLTQSPGTLSLSPGERATLSCRASQSVSSSYLAWYQQKPGQAPRLLIYGASSRATGIPDRFSGSGSGTDSTLTISRLEPEDFAVYYCQQPTSSPITFGQGTKVEIK
notes: bacterial Fab
As for B2, in experiment [3], the Kd stood at 6.09 nM.

B3: 19E5 Fab (Fab, V domains shown)
VH: QVQLVQSGAEVKKPGASVKVSCKASGYTFTSYYMHWVRQAPGQGLEWMGIINPSGGSTSYAQKFQGRVTMTRDTSTSTVYMELSSLRSEDTAVYYCARGEWRRYTSFDYWGQGTLVTVSS
VL: QAVVTQEPSLTVSPGGTVTLTCGSSTGAVTTSNYANWVQEKPGQAFRGLIGGTNKRAPGTPARFSGSLLGGKAALTLSGAQPEDEAEYYCALWYSNLWVFGGGTKLTVL
notes: bacterial Fab
Turning to B3, the Kd in experiment [4] came out at 19.4 nM; in experiment [5] it was 522 nM.
